# Test results reported in US11518981B2, “Methods of enhancing engraftment activity of hematopoietic stem cells” (CHILDREN'S HOSPITAL MEDICAL CENTER, priority 2017, dated 2022).
# What was measured:
# [1] = system: CD34^+ cells / CD34^+38^−90^+ HSCs; assay: gene transfer / transduction efficiency (GFP or CFP marker); assay type: cell-based, human
# Experimental: Freshly isolated CD34^+ cells were used, wherever possible, and especially for 0 h controls. In some experiments cryopreserved CD34^+ cells were thawed for 4 hrs in IMDM containing cytokines, then washed and used for experiments. […] Cells were kept in culture for a total of either 18-24 hours, 36-42 hours or 72-96 hours. For RV transduction, human CD34^+ cells were pre-stimulated for 2 days (42-48 hours) hours at a cell density of 3×10^5 cells/ml. Retronectin coated tissue culture flasks or plates were preloaded at room temperature with GALV pseudotyped RV twice for one hour each. The vector supernatant was removed and the cells were loaded into the RV loaded retronectin coated flasks. RV transduction was also performed twice 24 hours apart at an MOI ranging from 5 to 10. After total of 72-96 hours in culture, cells were harvested. LV and RV transductions were performed at 37° C. under 5% CO2 in ambient oxygen concentrations (20% 02). For some experiments, LV was added just like RV after 2 days of pre-stimulation. p38 MAPK inhibitors Birb 796 (600 nM), Vx-745 (1 μM), or LY 2228820 (500 nM) (all from Selleckchem) were supplemented to the culture media. […]
# p38 MAPK = assay: phospho-p38 MAPK (p-p38) flow cytometry in cultured, transduced HSCs; assay type: cell-based, human; conditions: LV or RV transduced, all culture conditions; 600 nM
structure (smiles),measurement,setting,value
"Cc1ccc(-n2nc(C(C)(C)C)cc2NC(=O)Nc2ccc(OCCN3CCOCC3)c3ccccc23)cc1 [p38i, 1-[5-tert-butyl-2-(4-methylphenyl)pyrazol-3-yl]-3-[4-(2-morpholin-4-ylethoxy)naphthalen-1-yl]urea]",transduction efficiency in the HSC compartment,[1]; CD34^+38^−90^+ cells,no difference
same,gene transfer efficiency in vitro or in vivo,"[1]; total human GFP^+ cells before transplant and 6, 24 weeks post 1 T",no effect
same,phospho-p38 (p-p38) in HSCs,p38 MAPK,significantly lower
